## Ab-14 heavy chain CDR variants: yeast mating affinities

Antigen: PDVDLGDISGINAS, a 14-residue peptide of the SARS-CoV-2 spike HR2 region.

Parent: Ab-14, a human scFv built as VH, a (GGGGS)3 linker, VL. Only the CDRs of the heavy chain vary.
VH: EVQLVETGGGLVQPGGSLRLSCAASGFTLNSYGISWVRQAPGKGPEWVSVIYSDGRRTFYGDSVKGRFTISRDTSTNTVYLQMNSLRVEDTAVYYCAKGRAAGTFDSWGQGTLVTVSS
VL: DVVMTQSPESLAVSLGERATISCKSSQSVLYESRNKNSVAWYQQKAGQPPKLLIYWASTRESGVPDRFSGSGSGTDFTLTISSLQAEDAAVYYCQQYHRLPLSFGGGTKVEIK

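The parent was found by panning a naive human phage display library on the peptide. Designed CDR sequences, proposed from the first random library and measured here. Several design methods are mixed in this list. In AlphaSeq, yeast of one mating type display the scFv and yeast of the other type display the target. Mating (16 h, 30 °C) was followed by selection of diploids and sequencing of their barcodes. Scores were corrected for input abundance and mapped to Kd with protein pairs of known affinity run in the same pool. The assay was run in six technical replicates.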

Each variant is given by its three heavy chain CDRs, as the data file delimits them; those of the parent are GFTLNSYGIS, VIYSDGRRTFYGDSVK, GRAAGTFDS.
Affinities are written as log10 Kd with Kd in nM; a lower number is a better binder.
The mean shown is taken over the replicates in which the pair was detected.
An entry "not detected" has no value in the source: the pair was not observed among the diploids in any replicate. This suggests poor binding but is not conclusive.

CDR-H1	CDR-H2	CDR-H3	log10 Kd (nM), mean	detected
GFTLNSYGIS	VIYSDGRRTFYDDSVK	GRLAGTFDS	1.27	6/6
GFDLDEYGIS	VIYADGKRTAYADDVK	GENAGTFDT	0.79	6/6
GFQLDEYGIS	VIYADGVRSSYVDSVK	GEITSAFSE	not detected	0/6
GFSLNSYGIS	VIYSDGRRTYYGDSVK	GRAAGTFDS	0.87	6/6
GFDLESYGIS	VIYADGRRTFYADSVK	GVNAGTFDI	-0.26	6/6
GFELNSYGIS	VIYSDGRRTFYSDSVK	GSAAGTFDS	1.39	6/6
GFTLNSYGIS	VIYADGRRTFYGPSVK	GRAAGTYKS	not detected	0/6
GFDLDEYGIS	VIYADGMRKAYADSVK	GNVAGTFDT	0.60	2/6
GFTLNEYGIS	VIYSDGRRTFYTDSVK	GQASGTFDT	0.92	6/6
GFNLNSYGIS	VIYSDGRRTFYADMVK	GNAAGTFDS	1.80	1/6
GFEVDEYGIS	VIYADGKRSMYANKVK	GHIAGMMHV	1.04	5/6
GFDLNEYGIS	VIYADGRRTFYVDSVK	GNLAGTFDQ	-0.68	6/6
GFDIDEYGIS	VIYADGRRTYYADSVK	GTNAGTFDS	-0.33	6/6
GFDINEYGIS	VIYADGRRTAYADSVK	GQTAGTFDS	-0.32	6/6
KFTLKSYGGS	VIYSDGRRTFYHDSVK	GRAAGTFDS	not detected	0/6
GFTLNSYGIS	VIYSDGKRLAYGGSVK	GRAAGTFVG	not detected	0/6
GFDIESFGIS	VIYADGIRAFYAQKVK	GTIAGTFVD	1.56	6/6
GFDLNEYGIS	VIYADGRRTFYTDSVK	GEHAGIFDI	0.78	6/6
GFTLNSYGIS	VIYSDGKRTFYGDSVK	CRAAGTFDS	0.84	6/6
KFSLNDYGIS	VIYSDGRRTFYSDSVK	GRTAGTFDS	-0.37	6/6
GFDLDEYGIS	VIYADGKRTYYADSVK	GQNAGTFDV	-0.67	6/6
GFDLDEYGIS	VIYADGRRTAYADSVK	GNQAGTFDM	-0.26	6/6
GFTLNSYGIS	VIYSDGRRVFYGDSVK	GDAALTFWS	not detected	0/6
GFSLNSYGIS	VIYSDGRRTFYDDSVK	GHAAGTFDS	0.44	6/6
GFSLNEYGIS	VIYSDGRRTFYGNSVK	GRAAGTFDS	0.26	6/6
GVDLDEYGIS	VIYADGHRRFYADDVK	GNDIGGFDL	1.48	1/6

Further variants, results first:

log10 Kd (nM), mean	detected	CDR-H1	CDR-H2	CDR-H3
0.74	6/6	GFWLNDYGIS	VIYSDGRRTFYGDSVK	GRTAGTFDA
not detected	0/6	GFEIDEYGIS	VIYADGLRYHYANSVK	GEMAGTFME
2.42	1/6	GFTLNDYGIS	VIYSDGRRTFYHDSVK	GRAAGTFTS
1.98	6/6	GFTLNSYGIS	VIYSDGRRTFYADDVK	GRVAGTFDK
-0.05	6/6	KFSLNEYGIS	VIYSDGRRTFYGDSVK	GSTAGTFDS
-0.76	6/6	GFDLNEYGIS	VIYADGVRTFYADSVK	GTNAGTFDV
1.38	1/6	GFFLNEYGIS	VIYSDGRRTFYGDSVK	GTAAGTFDS
0.25	4/6	GFVLNQYGIS	VIYSDGRRTFYADSVK	GRAAGTFDS
-0.78	6/6	GFDLNEYGIS	VIYADGMRTAYANDVK	GNVAGTFDV
0.15	6/6	GFDLNTYGIS	VIYSDGRRTFYIDSVK	GKAAGTFDS
0.92	6/6	GFQLNSYGIS	VIYSDGRRTFYQDSVK	GNAAGTFDS
1.64	4/6	GFTLNSYGIS	VIYSDGRRTFYGDNVK	GQLAGTFDS
0.99	6/6	GFSLNSYGIS	VIYSDGRRTFYGDSVK	GKHAGTFDS
-0.25	6/6	GFDLNEYGIS	VIYADGMRTAYSDNVK	GEVAGTFDM
-0.22	1/6	GFDLNSYGIS	VIYSDGRRTFYADSVK	GNAAGTFDD
not detected	0/6	GFTLNSYGGS	VIYSDGRRTFYIDSVK	GRAAGTFDT
0.38	6/6	GFQLNDYGIS	VIYSDGRRTFYADSVK	GRAAGTFDS
not detected	0/6	GMDLNEYGIS	VIYADGRRTAYINQVK	GSQSDIVSS
1.14	6/6	GFELNSYGIS	VIYSDGRRTFYQDSVK	GEAAGTFDS
not detected	0/6	GFTLNSYGIS	VIYSDGRRTFYGDSFK	GRAAGTFML
-0.38	6/6	GFDLNEYGIS	VIYADGRRTAYSDSVK	GETAGTFDV
1.63	6/6	GFSLNNYGIS	VIYSDGRRTFYGDSVK	GRHAGTFDS
-0.34	6/6	GFDLNEYGIS	VIYADGMRTFYSDSVK	GNNAGTFDV
-0.80	6/6	GFDLNEYGIS	VIYADGMRTAYAESVK	GNVAGTFDL
-0.55	6/6	GFDLNEYGIS	VIYADGRRTFYADSVK	GNVAGTFNN
not detected	0/6	GFDLNEYGIS	VIYADGRRTQYIDSVK	GNEAGTFDM

Extract of 3 entries:

CDR-H1,CDR-H2,CDR-H3,"log10 Kd (nM), mean",detected
GFTLNEYGIS,VIYSDGRRTFYTDSVK,GQASGTFDT,0.92,6/6
GFEIDEYGIS,VIYADGLRYHYANSVK,GEMAGTFME,not detected,0/6
GFDLNTYGIS,VIYSDGRRTFYIDSVK,GKAAGTFDS,0.15,6/6

Values of this round are not directly comparable with the first-round values of the same sequences.
The authors' rule: three or more of the six replicates give a measured affinity, fewer mean a poor binder.
Background: pairings of all heavy chain designs with three empty control strains gave a value in 1% of cases (median 2.08, 5th percentile 0.84). Values in that range, when seen in few replicates, are hard to tell from nonspecific mating.
Of ten entries with the parent sequence, four were seen in most replicates (averages 0.34 to 2.37), three in one and three in none, so single entries are noisy.

Data: MIT Lincoln Laboratory AlphaSeq set, Li et al. 2023, doi:10.1038/s41467-023-39022-2, as distributed in FLAb.